Data reported in patent US10407428B2, “Spiro-isoquinoline-1,4′-piperidine compounds having multimodal activity against pain” (ESTEVE PHARMACEUTICALS, S.A., priority 2014, dated 2019).

Tested on: human σ1 receptor and human μ-opioid receptor
Assay: Human σ1 receptor radioligand assay and human μ-opioid receptor radioligand assay (μ and σ1 dual binding)
Set-up: key to the marks not given beside the values
Conditions: combined class for Ki-μ ([3H]-DAMGO, CHO-K1 membranes) and Ki-σ1 ([3H](+)-pentazocine, HEK-293 membranes)

Compound	μ and σ1 dual binding
CCNC(=O)N1CCc2ccccc2C12CCN(CCc1ccncc1)CC2	++
CC(=O)N1CCc2ccccc2C12CCN(CC(O)c1ccccc1)CC2 (centres unmarked)	++
O=C(CO)N1CCc2ccccc2C12CCN(CCc1ccccc1)CC2	++
CC(=O)N1Cc2ccccc2C12CCN(CCc1ccccc1)CC2	++
CC(=O)N1CCc2ccccc2C12CCN(CCc1ccccn1)CC2	++
CC(=O)Nc1cc(CCN2CCC3(CC2)c2ccccc2CCN3C(C)=O)ccn1	++
CC(=O)N1CCc2ccccc2C12CCN(CCN(C)C(=O)c1ccccc1)CC2	++
CC(=O)N1CCc2ccccc2C12CCN(CCc1ccc(C(F)(F)F)nc1)CC2	++
